# Binding of CDR-mutated scFvs to a peptide of the spike HR2 region

Antigen: PDVDLGDISGINAS, a 14-residue peptide of the SARS-CoV-2 spike HR2 region.

Ab-14 is the parent antibody, in scFv form: VH, then three GGGGS repeats, then VL. The heavy chain is unchanged in all variants.
VH: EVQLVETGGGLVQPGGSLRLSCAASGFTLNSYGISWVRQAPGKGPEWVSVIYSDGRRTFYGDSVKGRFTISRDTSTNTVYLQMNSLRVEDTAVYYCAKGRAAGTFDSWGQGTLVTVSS
VL: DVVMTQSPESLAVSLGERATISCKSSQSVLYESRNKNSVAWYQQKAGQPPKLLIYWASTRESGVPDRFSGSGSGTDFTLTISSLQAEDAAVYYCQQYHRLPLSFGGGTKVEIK

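Designed CDR sequences, proposed from the first random library and measured here. Their group label is 14L_GP_Gen (GP: Gaussian process model; Gen: genetic algorithm; a sequence that several methods proposed may carry one label only). AlphaSeq pools MATa yeast showing the antibodies with MATalpha yeast showing the peptide. Binding brings cells together so that they mate, and sequencing counts the barcode pairs among the diploids. Scores were corrected for input abundance and mapped to Kd with protein pairs of known affinity run in the same pool. Mating was done six times.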

The parent's light chain CDRs are KSSQSVLYESRNKNSVA, WASTRES, QQYHRLPLS; each variant's own CDRs replace them letter for letter.
The read-out is the apparent dissociation constant on a log10 scale (nM): the lower, the stronger.
Three control strains display no target. For all light chain designs, 4% of the pairings with them gave a signal, with a median of 2.64 and one signal in twenty below 1.59, so weak values seen in few replicates may be background. Also given: how often the same scFv was detected with the empty control strains, with their mean in brackets.
In the paper, a design with two or fewer of six values counts as a poor binder.
A sequence measured in both rounds can read differently, since the two assays cover different ranges.

CDR-L1,CDR-L2,CDR-L3,"replicates, log10 nM",signal with controls
KVAQSDLYESRNKNSVA,EASTRES,QQYHRLPLS,-0.12 0.27 -0.04 -0.42 -0.40 -0.10,1 of 18 (1.31)
KSSQSVPYESRNKNSVA,NASTRMS,QQYHRLPLS,0.45 1.13 0.23 0.13 0.77 0.67,0 of 18
KVSQSHLYESRNKNSVA,EASQRES,QQYHRLPLS,0.24 -0.97 -0.17 0.09 -0.03 -0.16,0 of 18
KLSQSVQYESRNKNSVA,NASTREV,QQYHRLPLS,0.34 0.03 0.15 -0.08 0.49 0.34,0 of 18
KVSQSVLYQSRNKNSVA,NASQRES,QQYHRLPLS,0.18 -0.16 -0.17 -0.22 -0.18 0.06,1 of 18 (2.86)
KLSQSYLYESRNKNSVA,NASTRES,QDYHRLPLS,0.62 0.42 0.36 0.37 0.53 0.61,2 of 18 (3.09)
KISQSVLYESRNKNSVA,DGSTRES,QQYHRLPLS,0.14 -0.37 -0.30 -0.26 -0.37 -0.02,1 of 18 (4.16)
KLSQSVLYESRAKNSVA,NASTRMS,QQYHRLPLS,0.30 0.20 -0.01 -0.09 -0.12 0.20,4 of 18 (2.83)
KVSQSKLYESRNKNNVA,DASTRES,QQYHRLPLS,0.34 -0.02 0.13 0.30 0.04 0.35,3 of 18 (2.82)
KLSQSVLYEQRNKNSVA,HASTRES,QQYHRLPLS,0.09 0.08 0.04 -0.14 0.08 0.22,1 of 18 (3.51)
KLSQSALYESRNKNSVA,EASQRES,QQYHRLPLS,0.02 0.17 0.07 0.13 0.24 0.49,1 of 18 (2.72)
QVSQSVLYESRNKNSVA,NASTRES,QQYHRLPLS,-0.02 -0.26 -0.26 -0.36 -0.28 -0.10,2 of 18 (3.61)
KLPQSVLYESRNKNSVA,NASYRES,QQYHRLPLS,0.11 0.02 -0.29 -0.13 -0.17 -0.06,0 of 18
KLSQSGLYESRNKNSVA,NASTREM,QQYHRLPLS,0.40 0.02 0.16 -0.04 -0.24 0.71,0 of 18
KFSQSWLYESRMKNSVA,NASQRES,QQYHRLPLS,0.01 -0.25 -0.24 -0.48 -0.22 -0.25,1 of 18 (2.61)
KLSQSVLYESRNKNSVA,GGSTRES,QQYHRLPLS,-0.30 -0.38 -0.40 -0.49 -0.41 -0.26,1 of 18 (2.59)
KLPQSQLYESRNKNSVA,EASQRES,QQYHRLPLS,-0.23 -0.46 -0.46 -0.52 -0.42 -0.39,0 of 18
KLSDSDLYESRNKNSVA,GASTRES,QQYHRLPLS,-0.12 -0.17 -0.32 -0.53 -0.25 -0.11,0 of 18
KLSQSVMYESRNKNSVA,DASTRES,QQYHRLPLS,0.10 -0.23 -0.31 -0.28 -0.23 0.00,4 of 18 (2.50)
KLEMSELYESRNKNSVA,NASQRES,QQYHRLPLS,0.17 0.02 0.17 -0.05 0.00 0.46,0 of 18
KLQQSEDYESRNKNSVA,NASTRLS,QQYHRLPLS,0.03 -0.33 -0.36 -0.24 -0.29 -0.22,1 of 18 (2.70)
FLSQSELYESRNKNSVA,NASTRMS,QQYHRLPLS,0.11 0.00 -0.01 0.03 -0.15 0.17,3 of 18 (2.90)
KSPQSELYESRNKNSVA,NASTRES,QQYHRLPLS,0.23 0.20 0.24 0.12 -0.01 0.22,1 of 18 (2.53)
KLQQSQLYESRNKNSVA,HASTRLS,QQYHRLPLS,0.50 0.28 0.17 0.09 0.07 0.31,0 of 18
KLSQSCLYESRNKNNVA,EASTRES,QQYHRLPLS,-0.30 -0.47 -0.70 -0.78 -0.65 -0.48,3 of 18 (2.69)
KMSQSVMMESRNKNSVA,EASTRES,QQYHRLPLS,0.13 -0.21 -0.15 -0.24 -0.22 -0.06,1 of 18 (3.32)
KLSQSVLYEERQKNSVA,NASQRES,QQYHRLPLS,0.63 0.13 0.50 0.22 0.11 0.43,0 of 18
KVQQSWLYESRNKNSVA,NASERES,QQYHRLPLS,-0.35 -0.63 -0.42 -0.70 -0.62 -0.29,1 of 18 (2.91)
KLEQSVLYESRNKNSVA,EASTRES,QQYHRLPLS,0.37 0.28 -0.07 -0.19 0.08 0.31,0 of 18
KLSQSVGYESRNKNNVA,AASTRES,QQYHRLPLS,-0.38 -0.44 -0.55 -0.65 -0.59 -0.25,0 of 18
KLSQSVLYEDRNKNSVA,NASQRES,QQYHRLPLS,-0.37 -0.50 -0.50 -0.71 -0.45 -0.31,3 of 18 (4.19)
KLSMSVLYESRNKNSVA,EASTREV,QQYHRLPLS,0.01 0.05 -0.29 -0.08 -0.13 -0.14,0 of 18
KLMQSVLYEDRNKNSVA,NASQRES,QQYHRLPLS,0.23 0.40 0.20 -0.08 0.19 0.29,0 of 18
KVQQSVLYESRNKNSVA,DASTRES,QQYHRLPLS,-0.06 -0.12 -0.13 -0.05 -0.24 0.32,0 of 18
HLSQSVLYESRNKNSVA,NASQRLS,QQYHRLPLS,-0.06 -0.14 -0.33 -0.29 -0.18 -0.07,2 of 18 (2.88)
KVSGSQLYESRNKNSVA,EASTRES,QQYHRLPLS,0.53 0.53 0.47 0.27 0.39 0.64,2 of 18 (2.22)
KLSQSVLYESRNKNSVA,EASTRLS,QQYHRLPLS,1.24 1.33 1.21 0.79 0.78 0.53,1 of 18 (2.08)
KLMQSEEYESRNKNSVA,NASQRES,QQYHRLPLS,0.05 0.12 -0.09 -0.16 -0.01 0.14,1 of 18 (3.49)
KISQSVLYESRNKNAVA,DASTRES,QQYHRLPLS,-0.55 -0.41 -0.41 -0.51 -0.53 -0.46,1 of 18 (1.75)
KLSQSVPYESRNKNSVA,DASTRCS,QQYHRLPLS,0.02 -0.03 -0.18 -0.29 -0.23 0.02,4 of 18 (3.39)
KLQQSVLYESRNKNSVA,NASTRFS,QQYHRLPLS,-0.01 -0.05 -0.08 -0.13 -0.14 -0.13,0 of 18
KLSPSVLYESRNKNSVA,EASTRES,QQYHRLPLS,0.16 0.30 0.29 0.13 0.15 -0.02,0 of 18
KVSQSDLYESRNKNSVA,EASTRES,QDYHRLPLS,0.62 0.14 0.35 0.30 0.45 0.67,1 of 18 (1.86)
KLSQSVLYESGNKNSVA,DASTRES,QQYHRLPLS,0.15 0.01 0.07 -0.15 -0.12 0.27,3 of 18 (2.37)
KLSQSWLYESRNKNSVA,EASTRMS,QQYHRLPLS,-0.02 -0.22 -0.22 -0.45 -0.17 0.11,3 of 18 (2.68)
KVSQSCLYESRNKNSVA,NASQRES,QQYHRLPLS,0.75 0.86 0.85 0.39 0.84 0.90,2 of 18 (2.35)
KLSQSVLYESRNPNNVA,EASTRES,QQYHRLPLS,0.36 -0.07 -0.13 -0.04 -0.09 0.13,0 of 18
KLSQSELYESRNKNAVA,NASTRES,QQYHRLPLS,-0.56 -1.53 -0.24 -0.05 -1.04 -0.41,0 of 18

The closing 6 entries, repeated:

{"CDR-L1": "KVSQSDLYESRNKNSVA", "CDR-L2": "EASTRES", "CDR-L3": "QDYHRLPLS", "replicates, log10 nM": "0.62 0.14 0.35 0.30 0.45 0.67", "signal with controls": "1 of 18 (1.86)"}
{"CDR-L1": "KLSQSVLYESGNKNSVA", "CDR-L2": "DASTRES", "CDR-L3": "QQYHRLPLS", "replicates, log10 nM": "0.15 0.01 0.07 -0.15 -0.12 0.27", "signal with controls": "3 of 18 (2.37)"}
{"CDR-L1": "KLSQSWLYESRNKNSVA", "CDR-L2": "EASTRMS", "CDR-L3": "QQYHRLPLS", "replicates, log10 nM": "-0.02 -0.22 -0.22 -0.45 -0.17 0.11", "signal with controls": "3 of 18 (2.68)"}
{"CDR-L1": "KVSQSCLYESRNKNSVA", "CDR-L2": "NASQRES", "CDR-L3": "QQYHRLPLS", "replicates, log10 nM": "0.75 0.86 0.85 0.39 0.84 0.90", "signal with controls": "2 of 18 (2.35)"}
{"CDR-L1": "KLSQSVLYESRNPNNVA", "CDR-L2": "EASTRES", "CDR-L3": "QQYHRLPLS", "replicates, log10 nM": "0.36 -0.07 -0.13 -0.04 -0.09 0.13", "signal with controls": "0 of 18"}
{"CDR-L1": "KLSQSELYESRNKNAVA", "CDR-L2": "NASTRES", "CDR-L3": "QQYHRLPLS", "replicates, log10 nM": "-0.56 -1.53 -0.24 -0.05 -1.04 -0.41", "signal with controls": "0 of 18"}

Values reported by Li et al. 2023, doi:10.1038/s41467-023-39022-2 (FLAb copy).